Laboratory results as given in ChEMBL document CHEMBL5214950 (Bioorg Med Chem Lett, 2022).

Chains of the proteins cited; added tags and fusions are not shown.
UniProt P23975, whole entry: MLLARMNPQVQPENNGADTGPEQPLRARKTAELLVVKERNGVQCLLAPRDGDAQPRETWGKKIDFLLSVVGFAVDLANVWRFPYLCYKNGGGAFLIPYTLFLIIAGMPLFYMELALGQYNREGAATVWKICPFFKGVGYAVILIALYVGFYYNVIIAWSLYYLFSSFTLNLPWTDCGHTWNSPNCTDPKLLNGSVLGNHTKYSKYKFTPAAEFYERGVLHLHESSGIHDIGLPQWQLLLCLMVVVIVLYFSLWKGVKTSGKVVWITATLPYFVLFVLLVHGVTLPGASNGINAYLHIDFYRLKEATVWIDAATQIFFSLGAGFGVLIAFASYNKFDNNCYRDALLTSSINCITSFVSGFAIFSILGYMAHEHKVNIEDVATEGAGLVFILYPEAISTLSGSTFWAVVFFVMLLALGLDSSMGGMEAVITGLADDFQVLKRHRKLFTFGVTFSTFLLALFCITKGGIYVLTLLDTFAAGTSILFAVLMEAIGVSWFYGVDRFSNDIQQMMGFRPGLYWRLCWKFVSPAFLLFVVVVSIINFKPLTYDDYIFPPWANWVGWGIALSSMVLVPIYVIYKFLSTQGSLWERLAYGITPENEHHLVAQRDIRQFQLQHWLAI

biological target: Sodium-dependent noradrenaline transporter (Homo sapiens, UniProt P23975); assay: Inhibition of norepinephrine transporter (unknown origin) assessed as inhibition of norepinephrine reuptake

[2H]C([2H])([2H])[C@@]([2H])(NC(C)(C)C)C(=O)c1cccc(Cl)c1 and [2H]C([2H])([2H])[C@]([2H])(NC(C)(C)C)C(=O)c1cccc(Cl)c1 are within 1.5-fold of each other in IC50: 3100 nM for the first, 2200 nM for the second.

Going from [2H]C([2H])([2H])C(N[C@@]([2H])(C)C(=O)c1cccc(Cl)c1)(C([2H])([2H])[2H])C([2H])([2H])[2H] to [2H]C([2H])([2H])C(N[C@]([2H])(C)C(=O)c1cccc(Cl)c1)(C([2H])([2H])[2H])C([2H])([2H])[2H], the IC50 rises from 1000 nM to 6800 nM (6.8-fold). The first is the more potent here.

CC(NC(C)(C)C)C(=O)c1cccc(Cl)c1 (racemic) [BUPROPION] showed an IC50 of 1600 nM.
